Measurements taken from US20080045492A1, “Mitotic Kinesin Inhibitors” (priority 2004, published 2008).

Target: T1, human KSP motor domain (KSP(367H)) (Homo sapiens, UniProt P52732)
T1 construct: were used to amplify the motor domain and the neck linker region; made in house; host or cells: E. coli BL21 (DE3), pRSETa
T1 sequence (P52732 18-359 limits assumed): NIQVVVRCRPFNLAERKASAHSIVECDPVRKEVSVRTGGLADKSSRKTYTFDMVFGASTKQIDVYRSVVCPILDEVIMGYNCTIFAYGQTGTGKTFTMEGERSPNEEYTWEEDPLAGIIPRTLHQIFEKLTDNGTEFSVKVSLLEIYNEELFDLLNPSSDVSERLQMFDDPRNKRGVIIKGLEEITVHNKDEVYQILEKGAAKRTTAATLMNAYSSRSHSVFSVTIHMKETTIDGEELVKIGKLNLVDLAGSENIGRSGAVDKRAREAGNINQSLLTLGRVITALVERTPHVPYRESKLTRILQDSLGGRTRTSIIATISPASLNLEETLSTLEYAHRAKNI
Assay: Kinesin ATPase In Vitro Assay
Assay type: biochemical
Description: I. Kinesin ATPase In Vitro Assay
The N-terminal primer 5′-[…] (SEQ. ID. NO.: 1) and the C-terminal primer 5′-[…] […] […] The PCR products were digested with AseI and XhoI, ligated into the NdeI/XhoI digestion product of pRSETa (Invitrogen) and transformed into E. coli BL21 (DE3).
Cells were grown at 37° C. to an OD600 of 0.5. After cooling the culture to room temperature expression of KSP was induced with 100 μM IPTG and incubation was continued overnight. Cells were pelleted by centrifugation and washed once with ice-cold PBS. Pellets were flash-frozen and stored −80° C. […]
The kinesin motor domain is incubated with microtubules, 1 mM ATP (1:1 MgCl2: Na-ATP), and compound at 23° C. in buffer containing 80 mM K-HEPES (pH 7.0), 1 mM EGTA, 1 mM DTT, 1 mM MgCl2, and 50 mM KCl. […] Free phosphate from the ATP hydrolysis reaction is measured via a quinaldine red/ammonium molybdate assay by adding a […] of quench C (e.g., to a mixture of 40 μl reaction volume+40 μl stop buffer is then added 120 μl quench C). […] Quench C is a 2:1 ratio of quench A:quench B The reaction is incubated for 5-10 minutes at 23° C., and the absorbance of the phospho-molybdate complex is measured at 540 nm.

CC(=O)C1=NN(c2cc(C)ccc2F)CC1(CCCN1CCN(C(C)=O)CC1)c1ccccc1 (racemic) [Compound 2-2, (±)-1-[4-[3-(4-acetylpiperazin-1-yl)propyl]-1-(2-fluoro-5-methylphenyl)-4-phenyl-4,5-dihydro-1H-pyrazol-3-yl]ethanone]
IC50: ≤ 50 µM
